# Test results published in published antibiotic growth screens (doi:10.1038/s41589-023-01349-8).
# The list shows a part of the results.
# Test system: A. baumannii ATCC 17978
# Test: relative growth (fraction of control); higher = less inhibition
# Conditions: 50 µM
row,SMILES,relative growth
1,CNC(=S)NCc1ccco1,0.969
2,COC[C@H]1CN(C(=O)c2cscn2)N1C,1.09
3,COc1ccc2cc3[n+](cc2c1OC)CCc1cc2c(cc1-3)OCO2.[Cl-],0.943
4,CC(=O)N(C)C[C@H]1Oc2ncc(C#CC(C)(C)O)cc2C(=O)N([C@H](C)CO)C[C@@H]1C,1.05
5,Cc1ccc(N(c2ccc(C)cc2)c2cccnc2)cc1,0.866
6,COc1cccc(NC(=O)N[C@H]2C=C[C@@H](CC(=O)N3CCOCC3)O[C@@H]2CO)c1,1.1
7,COCCNC(=O)C[C@H]1CC[C@@H]2[C@H](COC[C@H](O)CN2S(=O)(=O)c2ccccc2C)O1,0.99
8,c1ccc(C2=Nc3ccccc3N=C(c3ccccc3)C2)cc1,1.05
9,OC[C@@H]1CN(CCN2CCOCC2)C[C@H](n2cnc3c(NC4CCC4)ncnc32)O1,1.04
10,CCc1cccc(C)c1NC(C)=O,1.06
11,Cc1occc(=O)c1O,0.903
12,O=C(Nc1ccccc1)c1ccccc1,0.84
13,COc1ccc2[nH]c(=O)[nH]c(=O)c2c1,0.841
14,CO[C@H]1CN(C)C(=O)c2ccc(NS(=O)(=O)c3ccccc3)cc2OC[C@@H](C)N(C(=O)NC(C)C)C[C@@H]1C,1.06
15,O=C(CCC1=NS(=O)(=O)c2cc(Br)cnc2N1)N1CCOCC1,0.996
16,COc1cccc(NC(=O)N(C)C[C@@H]2Oc3cc(C#CC4(O)CCCC4)ccc3S(=O)(=O)N([C@@H](C)CO)C[C@@H]2C)c1,1.12
17,COCC(=O)N(C)C[C@H]1Oc2cc(C#Cc3cccnc3)ccc2S(=O)(=O)N([C@H](C)CO)C[C@H]1C,0.981
18,CCC(=O)N[C@@H]1CC[C@H](CC(=O)OC)O[C@H]1CO,0.977
19,C[C@@H]1CN([C@H](C)CO)S(=O)(=O)c2ccc(C#C[C@@H](C)O)cc2O[C@@H]1CN(C)C(=O)c1ccccc1,0.96
20,CCOc1cc(CC(=O)N[C@@H](CC(C)C)c2ccccc2N2CCCCC2)ccc1C(=O)O,0.984
21,NC(=O)[C@H]1[C@@H]2C(=O)O[C@@H](c3ccccc3)[C@@H](c3ccccc3)N2[C@@H](c2ccc(O)cc2)[C@]12C(=O)Nc1ccc(C#CC3(O)CCCCCC3)cc12,1.02
22,CNC(=O)C[C@H]1Nc2ccccc2NC1=O,1.03

row,SMILES,relative growth
1,C[C@@H]1CN([C@@H](C)CO)S(=O)(=O)c2ccc(C#CCN(C)C)cc2O[C@H]1CN(C)S(=O)(=O)c1cccc(F)c1,1.1
2,COc1ccc(C(=O)c2ccccc2)c(O)c1,0.992
3,COC(=O)c1c(CC[C@@H](CO)NC(=O)N[C@@H](Cc2ccccc2)Cn2cc(C3(O)CCCCC3)nn2)oc(C(C)=O)c1C(=O)OC,0.841
4,O=C(C[C@H]1C=C[C@@H](NC(=O)c2cccc(F)c2)[C@H](CO)O1)NCCN1CCCC1,1.04
5,COc1ccc(S(=O)(=O)N[C@H]2C=C[C@H](CC(=O)N3CCN(c4ccccc4)CC3)O[C@@H]2CO)cc1,1.04
6,C[C@H](CO)N1C[C@H](C)[C@H](CN(C)C(=O)c2ccc3c(c2)OCO3)Oc2cc(C#Cc3ccccc3F)ccc2S1(=O)=O,1.05
7,COc1ncnc(NS(=O)(=O)c2ccc(N)cc2)c1OC,1.03
8,C#CCCCCCCCCCCCC(O)CC(O)COC(C)=O (stereo not given),0.789
9,O=C(O)CSCC(=O)N1CCCCC1,0.897
10,CSCC[C@H]1NC(=O)NC1=O,1.01
11,CN[C@@H]1C(OC2[C@H](O[C@H]3[C@H](O)[C@@H](O)[C@H](NC(=N)N)[C@@H](O)[C@@H]3NC(=N)N)OC(C)[C@]2(O)CO)OC(CO)C(O)C1O.O=S(=O)(O)O (stereo not given in full),0.895
12,CCC(C)[C@H]1O[C@]2(C=C[C@@H]1C)C[C@@H]1C[C@@H](C/C=C(\C)[C@@H](OC3C[C@H](OC)C(O[C@H]4C[C@H](OC)[C@@H](O)[C@H](C)O4)[C@H](C)O3)[C@@H](C)/C=C/C=C3\CO[C@@H]4[C@H](OC)C(C)=C[C@@H](C(=O)O1)[C@]34O)O2 (stereo not given in full),1.04
13,C[C@@H]1CN([C@H](C)CO)S(=O)(=O)c2ccc(-c3ccc(C(=O)N(C)C)cc3)cc2O[C@H]1CN(C)C(=O)C1CCOCC1,0.94
14,C[C@H](O)[C@H](O)[C@@H](O)[C@@H](O)/C=N/NC(=O)c1cccc(C(=O)NO)c1,0.869
15,O=C(C1=C[C@@H](c2ccc3c(c2)OCO3)C[C@@H](OCCCCO)O1)N1CCN(Cc2ccc3c(c2)OCO3)CC1,1.07
16,OCCNC(=S)Nc1ccccc1,1.04
17,COc1ccc(C(=O)CC(=O)c2ccc(C(C)(C)C)cc2)cc1,0.959
18,CCN(CCO)CCCC(C)Nc1ccnc2cc(Cl)ccc12.O=S(=O)(O)O (stereo not given),1.1
19,O=C(C[C@@H]1CC[C@H](NC(=O)CN2CCOCC2)[C@H](CO)O1)NC1CCC1,0.919
20,COC(=O)c1cc(=O)[nH]c2c1c(=O)n(C)c(=O)n2C,1.14
21,COC(=O)c1c[nH]c(=S)n1C,0.906
22,Nc1nc2c(ncn2COCCO)c(=O)[nH]1,1.09

row,SMILES,relative growth
1,O=C(O)c1ccc2nc(O)c(=O)[nH]c2c1,0.998
2,CC(C)CNC(=O)[C@@]1(C)c2ccccc2C(=O)N(Cc2cc(C(F)(F)F)cc(C(F)(F)F)c2)[C@H]1c1ccc(CO)cc1,0.871
3,O=C(C[C@@H]1CC[C@@H]2[C@H](COC[C@H](O)CN2S(=O)(=O)c2ccccc2F)O1)NCc1ccccc1Cl,0.991
4,CC(C)NC(=O)N(C)C[C@H]1Oc2cc(C#Cc3ccccn3)ccc2S(=O)(=O)N([C@H](C)CO)C[C@@H]1C,1.01
5,Cl.N=c1ccn2c(n1)O[C@@H]1[C@@H](O)[C@H](CO)O[C@@H]12,1.01
6,C=CC[C@@H](CC(=O)N[C@@H](CO)Cc1ccccc1)C(=O)N[C@@H](C)COC(=O)[C@@H](CC=C)CC(=O)OC(C)(C)C,0.629
7,O=c1cc(-c2ccccc2O)oc2cc(O)ccc12,1.06
8,COC(=O)C[C@H]1CC[C@@H]2[C@H](COC[C@H](O)CN2S(=O)(=O)c2cn(C)cn2)O1,0.908
9,OC[C@H]1O[C@@H](OCCc2ccc(O)cc2)[C@H](O)[C@@H](O)[C@@H]1O,0.835
10,O=S(=O)(NCCCN(C/C=C/c1ccc(F)cc1)C/C=C/c1ccc(F)cc1)c1cccc2cnccc12,0.98
11,CC(=O)O[C@H]1CC[C@]2(C)[C@H]3CC[C@@]4(C)[C@H](c5ccoc5)OC(=O)[C@H]5O[C@]54[C@]3(C)[C@H](OC(C)=O)C[C@H]2C1(C)C [3beta-ACETOXYDEOXODIHYDROGEDUNIN],0.868
12,O=C(O)CC[C@H]1CCC(=O)N1,0.973
13,CCOCC(O)COc1ccc(NC(=O)CC[S+](C)C)cc1.Cc1ccc(S(=O)(=O)[O-])cc1 (stereo not given),1.02
14,CC(=O)O[C@H]1CCC2(C)C3=C(CCC2C1(C)C)[C@]1(C)CCC(C(C)CCC=C(C)C)[C@@]1(C)CC3 (stereo not given in full),0.903
15,CCOC(=O)Cc1n[nH]c(=O)[nH]c1=O,1.03
16,CCCNC(=O)N1C[C@@H](O)COC[C@H]2O[C@@H](CC(=O)NCc3ccncn3)CC[C@@H]21,0.965
17,Cl.O=C(O)c1cn(-c2ccc(F)cc2)c2cc(N3CCNCC3)c(F)cc2c1=O,0.137
18,CSCC[C@H](N)C(=O)O,0.863
19,C[C@@H](O)[C@H](N)C(=O)O,1.02
20,CNCCC=C1c2ccccc2CCc2ccccc21.Cl,0.91
21,O=C(C[C@@H]1CC[C@H]2[C@@H](COC[C@@H](O)CN2C(=O)c2ccccc2F)O1)N1CCN(c2ccccc2)CC1,1.06
22,COc1ccc([C@@H](N)c2ccccc2)cc1,0.866

row,SMILES,relative growth
1,CC1C/C=C/C=C/C=C/C=C/C(O[C@@H]2O[C@H](C)[C@@H](O)[C@H](N)[C@@H]2O)CC2OC(O)(CC(O)CC3OC3/C=C/C(=O)O1)CC(O)C2C(=O)O (stereo not given in full),1.06
2,C[C@@H](O)Cn1cnc2c1c(=O)n(C)c(=O)n2C,0.955
3,Cn1cnc(S(=O)(=O)N[C@@H]2CC[C@H](CC(=O)N3CCN(c4ccccc4)CC3)O[C@@H]2CO)c1,1.06
4,COc1cccc(S(=O)(=O)Nc2ccc3c(c2)[C@@H]2C[C@H](CC(=O)NCc4cccc(F)c4)O[C@@H](CO)[C@@H]2O3)c1,0.916
5,O=C(C[C@H]1CC[C@H]2[C@@H](COC[C@H](O)CN2S(=O)(=O)c2ccc(Cl)cc2)O1)N[C@@H]1CCN(Cc2ccccc2)C1,1
6,COc1ccccc1NC(=O)N(C)C[C@H]1Oc2cc(Br)ccc2S(=O)(=O)N([C@@H](C)CO)C[C@@H]1C,0.971
7,Cl.NCCCC(N)(C(=O)O)C(F)F.O (stereo not given),0.957
8,Cc1cccc(S(=O)(=O)N2C[C@@H](O)COC[C@@H]3O[C@H](CC(=O)NCCCN4CCOCC4)CC[C@H]32)c1,1.07
9,Nc1nonc1C(=O)NCc1ccco1,0.849
10,Cc1c(Cl)cccc1Nc1ncccc1C(=O)O,0.89
11,O=C(N/N=C/c1ccc([N+](=O)[O-])o1)c1ccc(O)cc1,1
12,CCNC(=O)C[C@@H]1C=C[C@H](NC(=O)C2CC2)[C@@H](CO)O1,0.97
13,C[N+](C)(C)CCCC[C@@H]1NC(=O)[C@@H]2C[C@H](C(=O)NCc3ccc(F)cc3)[C@H](c3ccc(O)cc3)N2C1=O,1.01
14,C=CCOC(=O)[C@H]1[C@@H]2C(=O)O[C@@H](c3ccccc3)[C@@H](c3ccccc3)N2[C@@H](c2ccc(OCCOC(=O)[C@H]3C[C@H]4C(=O)N[C@@H](CCCCN(C)C)C(=O)N4[C@H]3c3ccc(O)cc3)cc2)[C@]12C(=O)Nc1ccc(I)cc12,1.01
15,C[C@@H](O)C#Cc1ccc2c(c1)O[C@H](CN(C)C(=O)Cc1ccccn1)[C@@H](C)CN([C@@H](C)CO)S2(=O)=O,1.13
16,Cc1ccc(C(C)C)cc2c(C)ccc1-2,1.35
17,CCCNC(=O)N[C@H]1C=C[C@H](CC(=O)N2CCN(C)CC2)O[C@H]1CO,1.02
18,Cc1ccc(C(N)=S)c(=O)[nH]1,1.15
19,NC(=O)c1ncn([C@@H]2O[C@H](CO)[C@@H](O)[C@H]2O)c1O,0.926
